Laboratory results published in PMC12069340 (Frontiers in Cellular and Infection Microbiology, 2025).

Tested on: influenza virus PR8

NC(=O)c1ncn([C@@H]2O[C@H](CO)[C@@H](O)[C@H]2O)n1 [ribavirin, Ribavirin]
stage of viral replication inhibited: middle
